The source of these data is ChEMBL document CHEMBL1151667, “Chlorochimaphilin: a new antibiotic from Moneses uniflora” (1996).

For the test, the system named is Escherichia coli. The following applies: UB1005.

The MIC is the lowest concentration that inhibits growth of the organism. For the sequence GENTAMICIN, 0.5 µg/mL was the least that counted as inhibitory (MIC).
